The list shows a part of the results, in another mix than the full data. Active and inactive are the calls of the source.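 How the source made its calls: active means inhibition above about 50% (limit read from the data); inconclusive means inhibition over screen mean plus 3 SD, below that limit; inactive means the rest.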
target: Dual specificity protein phosphatase 1 (Homo sapiens) (UniProt P28562); experiment: blockers of human DUSP1 activity – biochemical, in vitro, primary screen (AID 374); settings: recombinant MKP-1, OMFP hydrolysis fluorescence; hits give high values;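 compounds tested at a single concentration somewhere between 10 and 100 µM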;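 further: 0% = DMSO max control wells and 100% = wells with enzyme stopped by NaOH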

Sequences of proteins named here, by UniProt entry; tags and fusion partners are left off. A change or cut given only in a name is not applied to a line headed by its entry.
UniProt P28562: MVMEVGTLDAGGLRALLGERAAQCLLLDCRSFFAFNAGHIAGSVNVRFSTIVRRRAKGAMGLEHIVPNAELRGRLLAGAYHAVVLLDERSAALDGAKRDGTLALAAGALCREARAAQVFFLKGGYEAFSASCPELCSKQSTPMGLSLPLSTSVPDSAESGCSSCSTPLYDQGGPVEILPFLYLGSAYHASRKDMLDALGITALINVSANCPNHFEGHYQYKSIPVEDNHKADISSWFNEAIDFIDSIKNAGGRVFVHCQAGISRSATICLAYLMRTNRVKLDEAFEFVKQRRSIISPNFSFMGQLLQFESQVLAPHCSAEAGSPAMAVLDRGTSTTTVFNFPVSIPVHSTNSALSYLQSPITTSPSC

Structure (SMILES)	inhibition
Cc1c2non([O-])c-2c(C)[n+](=O)[n+]1[O-]	inactive: 13.4%
CCc1nc2c(n1)c1c(non1O)c1c2no[n+]1[O-]	inactive: 1.41%
c1nnnn1CCn1cnnn1	inactive: -3.16%
O=P(Nc1nccs1)(c1ccccc1)c1ccccc1	inactive: -1.61%
O=C(OC1CN2CCC1CC2)c1cccc(Cl)c1 (stereo not given)	inactive: 0.96%
COC(=O)c1cc2c(s1)N=C(c1ccccc1)N(C)P2(=O)N1CCOCC1 (stereo not given)	inactive: -1.59%
O=P1(Nc2nc3ccc(Cl)cc3s2)COc2ccccc2O1 (stereo not given)	inactive: -11.7%
Cc1cccc(OCC(=O)OC2CN3CCC2CC3)c1 (stereo not given)	inactive: -22.9%
CCOP1(=S)c2c(C)nn(CCC#N)c2N=C(c2ccc(F)cc2)N1C (stereo not given)	inactive: 24.4%
O=P(Nc1nccs1)(c1ccccc1)c1nc2ccccc2s1 (stereo not given)	inactive: 25.1%
CCOP1(=S)c2c(C)nn(CCC#N)c2N=C(c2ccccc2F)N1C (stereo not given)	inactive: -1.95%
O=P1(Nc2ccc(Br)cn2)COc2ccccc2OC1	inactive: -16.5%
Cc1ccc(OCC(=O)OC2CN3CCC2CC3)cc1 (stereo not given)	inactive: -21.8%
O=P1(Nc2ncccn2)COc2ccccc2OC1	inactive: -10.4%
Cc1nn(-c2ccccc2)c2c1P(=O)(N1CCOCC1)N(C)C(c1ccccc1)=N2 (stereo not given)	inactive: 15.8%
Clc1n[nH]nc1-c1nn[nH][15n]1	inactive: -3.8%
O=P1(Nc2ccccn2)COc2ccccc2OC1	inactive: -11.6%
O=C(COc1ccccc1)OC1CN2CCC1CC2 (stereo not given)	inactive: 11.8%
COP1(=S)c2c(C)nn(CCC#N)c2N=C(c2ccc(F)cc2)N1C (stereo not given)	inactive: 18.4%
O=C(OC1CN2CCC1CC2)C12CC3CC(CC(C3)C1)C2 (stereo not given)	inactive: 17.3%

Source: PubChem BioAssay AID374 (University of Pittsburgh Molecular Library Screening Center, 2006)
